This experiment has as its target AK105 (hG1WT), a version of penpulimab with wildtype IgG1 backbone (human). Kind of experiment: BLI; ForteBio Octet QKe; antibodies (50 μg/mL) immobilised on FAB2G sensor; C1q 20 nM to 1.25 nM in solution; 60 s binding and 60 s dissociation.

Chains of the proteins cited; added tags and fusions are not shown. Chains listed by the source or under a name are the forms on record and can include a tag or linker. Residues count along the entry.
UniProt P02745, 23-245: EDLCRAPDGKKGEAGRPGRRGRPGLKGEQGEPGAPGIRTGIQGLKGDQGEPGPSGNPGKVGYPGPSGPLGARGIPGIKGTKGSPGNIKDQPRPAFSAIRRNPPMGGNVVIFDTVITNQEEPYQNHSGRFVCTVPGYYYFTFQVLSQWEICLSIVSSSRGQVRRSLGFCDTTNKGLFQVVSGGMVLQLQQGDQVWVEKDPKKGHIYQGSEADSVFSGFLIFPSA
C1q, UniProt P02746, 28-253: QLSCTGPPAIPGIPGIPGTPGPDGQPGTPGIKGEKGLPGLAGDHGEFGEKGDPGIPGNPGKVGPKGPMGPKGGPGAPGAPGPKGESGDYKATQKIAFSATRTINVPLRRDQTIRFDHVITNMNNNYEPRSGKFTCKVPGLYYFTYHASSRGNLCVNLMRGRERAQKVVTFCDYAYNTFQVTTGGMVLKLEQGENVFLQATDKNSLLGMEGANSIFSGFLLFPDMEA
C1q, UniProt P02747, 29-245: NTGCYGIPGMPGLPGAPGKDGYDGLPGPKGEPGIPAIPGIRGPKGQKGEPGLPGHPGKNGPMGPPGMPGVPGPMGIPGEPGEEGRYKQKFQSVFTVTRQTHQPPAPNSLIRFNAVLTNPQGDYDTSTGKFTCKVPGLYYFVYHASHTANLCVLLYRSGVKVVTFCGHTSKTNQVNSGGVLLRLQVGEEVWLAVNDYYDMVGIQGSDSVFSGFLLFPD
AK105 (hG1WT), a version of penpulimab with wildtype IgG1 backbone (human), heavy, as listed by the source, chain 1 of 2: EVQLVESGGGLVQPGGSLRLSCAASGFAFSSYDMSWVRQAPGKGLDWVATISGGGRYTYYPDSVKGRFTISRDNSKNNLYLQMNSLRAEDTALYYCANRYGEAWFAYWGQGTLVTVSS
AK105 (hG1WT), a version of penpulimab with wildtype IgG1 backbone (human), light, as listed by the source, chain 2 of 2: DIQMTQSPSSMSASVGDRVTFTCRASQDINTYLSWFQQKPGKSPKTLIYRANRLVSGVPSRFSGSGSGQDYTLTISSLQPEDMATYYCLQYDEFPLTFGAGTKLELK

This is an account of results in article PMC9272907, “Penpulimab, an Fc-Engineered IgG1 Anti-PD-1 Antibody, With Improved Efficacy and Low Incidence of Immune-Related Adverse Events” (Frontiers in Immunology, 2022).

For “C1q (from UniProt P02745 23-245; P02746 28-253; P02747 29-245) (complex)”, the Kd (commonly the equilibrium constant for the complex coming apart) amounted to 1.84 nM; the koff – broadly, the first-order rate constant of dissociation – was 0.0104 s⁻¹; the kon – broadly, the rate constant with which the complex forms – is 5.64e+06 M⁻¹ s⁻¹.
